For assay [1], the target named is human trkA receptor immunoadhesin (trkA extracellular domain fused to immunoglobulin constant domains), human, P04629 33-423.
Assay [2] concerns the target human trkC receptor immunoadhesin (trkC extracellular domain fused to immunoglobulin constant domains), human, Q16288 32-429.

Turning to NGFR4, the IC50mut/IC50NGF in assay [1] worked out at 1.5. Besides, in assay [2], the IC50mut/IC50NGF12 came to 1 and the IC50mut/IC50NT-3 was found to be 14.8.

The values are drawn from patent publication US6365373.
